Target: ADAM10 (Homo sapiens, UniProt O14672)
Test: ADAM10 glycosylated substrate uHTS/HTS assay
Assay type: biochemical
Description: To enable uHTS both ADAM10 and ADAM17 glycosylated substrate[13] (Fig. 1A) assays were miniaturized to 1536 well plate format. The workflow of the assays in 384 well plate format was recaptured in 1536 well plate format and assay volume was scaled down to 5 µL.
Both assays followed the same general protocol. […] Reactions were incubated at RT for 2 h, after which the fluorescence was measured using Perkin Elmer Viewlux multimode microplate imager (λexcitation = 360 nm, λemission = 460 nm). Final concentration of test compounds in assays was 7.0 µM.
The miniaturized 1536-well plate format ADAM10 and ADAM17 assays were used to screen a collection of ≈370,000 compounds (MLSMR library, provided by the NIH) on the automated Kalypsys/GNF platform at the Scripps Research Institute Molecular Screening Center (SRIMSC, Jupiter, FL. More details at http://hts.florida.scripps.edu/). […] Both uHTS campaigns were run separately but in a similar manner. Briefly, the first step was the primary screen of all MLSMR’s test compounds as singlicate against the ADAM10 or ADAM17 target at a final concentration of 7.0 μM. […] Sample to background (S/B) ratios, as well as Z and Z′ values were calculated on a per-plate basis as described before. […]

Chains of the proteins cited; added tags and fusions are not shown. Residues count along the entry.
UniProt O14672, 214-748 limits assumed: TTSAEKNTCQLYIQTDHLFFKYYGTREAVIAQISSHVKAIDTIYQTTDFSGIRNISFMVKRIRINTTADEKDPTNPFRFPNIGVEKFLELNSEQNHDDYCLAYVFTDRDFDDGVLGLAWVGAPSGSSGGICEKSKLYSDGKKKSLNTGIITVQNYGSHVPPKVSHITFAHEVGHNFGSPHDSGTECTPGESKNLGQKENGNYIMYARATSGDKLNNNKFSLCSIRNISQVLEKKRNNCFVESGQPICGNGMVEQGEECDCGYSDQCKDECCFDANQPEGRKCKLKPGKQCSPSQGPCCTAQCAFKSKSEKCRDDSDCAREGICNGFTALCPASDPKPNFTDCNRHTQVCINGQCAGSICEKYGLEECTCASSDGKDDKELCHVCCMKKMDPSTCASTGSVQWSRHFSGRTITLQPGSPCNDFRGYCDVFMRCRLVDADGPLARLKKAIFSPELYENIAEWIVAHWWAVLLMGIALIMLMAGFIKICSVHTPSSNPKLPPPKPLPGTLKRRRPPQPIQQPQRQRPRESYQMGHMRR

IC50: > 70 µM
Compound: CCCCC[C@H](CC(=O)NO)C(=O)N[C@H](C(=O)N1CCC[C@H]1CO)C(C)C
